Patent publication US11618753B2 (priority 2018, dated 2023)

Chains of the proteins cited; added tags and fusions are not shown. Lines headed by an entry give the natural chain unless they say otherwise; changes in a name come on top.
UniProt O00329: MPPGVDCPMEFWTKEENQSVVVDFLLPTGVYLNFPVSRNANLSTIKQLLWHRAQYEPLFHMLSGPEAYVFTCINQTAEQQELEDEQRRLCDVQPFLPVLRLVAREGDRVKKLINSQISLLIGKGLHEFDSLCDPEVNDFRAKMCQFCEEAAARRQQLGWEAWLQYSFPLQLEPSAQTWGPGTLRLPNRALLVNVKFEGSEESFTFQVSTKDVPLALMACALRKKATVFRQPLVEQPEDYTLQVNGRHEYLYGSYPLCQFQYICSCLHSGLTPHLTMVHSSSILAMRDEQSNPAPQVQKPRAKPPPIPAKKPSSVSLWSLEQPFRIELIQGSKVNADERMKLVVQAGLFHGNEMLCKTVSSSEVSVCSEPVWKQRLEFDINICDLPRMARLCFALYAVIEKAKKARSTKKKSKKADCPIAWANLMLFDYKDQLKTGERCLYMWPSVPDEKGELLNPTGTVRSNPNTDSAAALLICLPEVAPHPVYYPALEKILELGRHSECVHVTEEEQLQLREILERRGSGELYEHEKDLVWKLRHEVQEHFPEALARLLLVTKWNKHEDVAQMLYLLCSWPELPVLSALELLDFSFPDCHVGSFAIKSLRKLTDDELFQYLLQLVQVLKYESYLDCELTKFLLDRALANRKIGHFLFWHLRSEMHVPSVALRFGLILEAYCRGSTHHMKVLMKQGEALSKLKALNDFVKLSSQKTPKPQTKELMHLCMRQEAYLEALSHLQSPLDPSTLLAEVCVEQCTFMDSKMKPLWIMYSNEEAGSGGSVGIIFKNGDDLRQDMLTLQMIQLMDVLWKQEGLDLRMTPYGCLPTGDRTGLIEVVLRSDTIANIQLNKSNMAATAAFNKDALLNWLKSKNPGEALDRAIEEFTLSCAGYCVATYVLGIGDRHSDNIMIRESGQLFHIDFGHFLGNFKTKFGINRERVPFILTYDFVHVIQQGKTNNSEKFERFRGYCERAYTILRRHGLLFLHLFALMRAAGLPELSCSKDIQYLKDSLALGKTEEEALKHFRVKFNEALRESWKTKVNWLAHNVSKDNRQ

Target: GST-tagged PIK3Cδ in complex with PIK3R1 (Homo sapiens (Human), UniProt O00329)
Assay: biochemical

| Structure (SMILES) | IC50 [µM] |
| --- | --- |
| COc1ncc(-c2cc(CN3CCC(F)(F)CC3)c3c(N)ncnn23)cc1C(=O)N[C@@H]1CN(C(=O)c2c(F)cccc2Cl)C[C@@H]1F [Example 1270, 5-{4-amino-5-[(4,4-difluoropiperidin-1-yl)methyl]pyrrolo[2,1-f][1,2,4]triazin-7-yl}-N-[(3R,4S)-1-(2-chloro-6-fluorobenzoyl)-4-fluoropyrrolidin-3-yl]-2-methoxypyridine-3-carboxamide] | > 15 |
| [2H]C([2H])([2H])Oc1ncc(-c2cc(CN3CC(F)(F)C3)c3c(N)ncnn23)cc1C(=O)N[C@@H]1CN(C(=O)c2ccc(F)cc2)C[C@@H]1F [Example 1275, 5-{4-amino-5-[(3,3-difluoroazetidin-1-yl)methyl]pyrrolo[2,1-f][1,2,4]triazin-7-yl}-N-[(3R,4S)-4-fluoro-1-(4-fluorobenzoyl)pyrrolidin-3-yl]-2-(methoxy-d3)nicotinamide] | 4.97 |
| [2H]C([2H])([2H])Oc1ncc(-c2cc(CN3CC(F)(F)C3)c3c(N)ncnn23)cc1C(=O)N[C@@H]1CN(S(=O)(=O)CC(F)(F)F)C[C@@H]1F [Example 1278, 5-{4-amino-5-[(3,3-difluoroazetidin-1-yl)methyl]pyrrolo[2,1-f][1,2,4]triazin-7-yl}-N-[(3R,4S)-4-fluoro-1-(2,2,2-trifluoroethanesulfonyl)pyrrolidin-3-yl]-2-(methoxy-d3)nicotinamide] | > 15 |
| [2H]C([2H])([2H])Oc1ncc(-c2cc(CN3CC(F)(F)C3)c3c(N)ncnn23)cc1C(=O)N[C@@H]1CN(C(=O)CC(C)C)C[C@@H]1F [Example 1285, 5-{4-amino-5-[(3,3-difluoroazetidin-1-yl)methyl]pyrrolo[2,1-f][1,2,4]triazin-7-yl}-N [(3R,4S)-4-fluoro-1-(3-methylbutanoyl)pyrrolidin-3-yl]-2-(methoxy-d3)nicotinamide] | 5.21 |
| C[C@@](O)(C(=O)N1C[C@H](F)[C@H](NC(=O)c2cc(-c3cc(C(F)(F)F)c4c(N)ncnn34)cc(F)c2F)C1)C(F)(F)F [Example 1332, 5-[4-amino-5-(trifluoromethyl)pyrrolo-[2,1-f][1,2,4]triazin-7-yl]-2,3-difluoro-N-[(3R,4S)-4-fluoro-1-[(2R)-3,3,3-trifluoro-2-hydroxy-2-methyl-propanoyl]pyrrolidin-3-yl]benzamide] | 0.128 |
| CCc1c(F)cc(-c2cc(C(F)(F)F)c3c(N)ncnn23)cc1C(=O)N[C@@H]1CN(C(=O)C2CC(F)(F)C2)C[C@@H]1F [Example 1338, 5-[4-amino-5-(trifluoromethyl)pyrrolo-[2,1-f][1,2,4]triazin-7-yl]-N-[(3R,4S)-1-(3,3-difluorocyclobutanecarbonyl)-4-fluoropyrrolidin-3-yl]-2-ethyl-3-fluorobenzamide] | 0.322 |
| COc1ncc(-c2cc(C(F)(F)F)c3c(N)ncnn23)cc1C(=O)Nc1ncn(Cc2ccccc2)n1 [Example 1344, 5-[4-amino-5-(trifluoromethyl)pyrrolo[2,1-f][1,2,4]triazin-7-yl]-N-(1-benzyl-1H-1,2,4-triazol-3-yl)-2-methoxypyridine-3-carboxamide] | > 15 |
| COc1ncc(-c2cc(C(F)(F)F)c3c(N)ncnn23)cc1C(=O)N[C@@H]1CN(S(=O)(=O)C2CCCCC2)C[C@@H]1F [Example 1462, 5-[4-amino-5-(trifluoromethyl)pyrrolo[2,1-f][1,2,4]triazin-7-yl]-N-[(3R,4S)-1-(cyclohexanesulfonyl)-4-fluoropyrrolidin-3-yl]-2-methoxypyridine-3-carboxamide] | > 15 |
| CCOC(=O)N1C[C@H](F)[C@H](NC(=O)c2cc(-c3cc(CN4CCC(F)(F)CC4)c4c(N)ncnn34)cnc2OC)C1 [Example 1500, ethyl (3R,4S)-3-(5-{4-amino-5-[(4,4-difluoropiperidin-1-yl)methyl]pyrrolo[2,1-f][1,2,4]triazin-7-yl}-2-methoxypyridine-3-amido)-4-fluoropyrrolidine-1-carboxylate] | > 15 |
| COc1ncc(-c2cc(CN3CCC(F)(F)CC3)c3c(N)ncnn23)cc1C(=O)N[C@@H]1CN(C(=O)OC(C)CC(F)(F)F)C[C@@H]1F (stereo partly drawn) [Example 1506, 4,4,4-trifluorobutan-2-yl (3R,4S)-3-(5-{4-amino-5-[(4,4-difluoropiperidin-1-yl)methyl]pyrrolo[2,1-f][1,2,4]triazin-7-yl}-2-methoxypyridine-3-amido)-4-fluoropyrrolidine-1-carboxylate] | > 15 |
| COc1ncc(-c2cc(CN3CCC(F)(F)CC3)c3c(N)ncnn23)cc1C(=O)N[C@@H]1CN(C(=O)OC2CCC2)C[C@@H]1F [Example 1509, cyclobutyl (3R,4S)-3-(5-{4-amino-5-[(4,4-difluoropiperidin-1-yl)methyl]pyrrolo[2,1-f][1,2,4]triazin-7-yl}-2-methoxypyridine-3-amido)-4-fluoropyrrolidine-1-carboxylate] | > 15 |
| COc1ncc(-c2cc(CN3CCC(F)(F)CC3)c3c(N)ncnn23)cc1C(=O)N[C@@H]1CN(C(=O)OCC2(C(F)(F)F)CC2)C[C@@H]1F [Example 1510, [1-(trifluoromethyl)cyclopropyl]methyl (3R,4S)-3-(5-{4-amino-5-[(4,4-difluoropiperidin-1-yl)methyl]pyrrolo[2,1-f][1,2,4]triazin-7-yl}-2-methoxypyridine-3-amido)-4-fluoropyrrolidine-1-carboxylate] | > 15 |
| COc1ncc(-c2cc(CN3CCC(F)(F)CC3)c3c(N)ncnn23)cc1C(=O)N[C@@H]1CN(C(=O)OCC(C)(C)C)C[C@@H]1F [Example 1514, 2,2-dimethylpropyl (3R,4S)-3-(5-{4-amino-5-[(4,4-difluoropiperidin-1-yl)methyl]pyrrolo[2,1-f][1,2,4]triazin-7-yl}-2-methoxypyridine-3-amido)-4-fluoropyrrolidine-1-carboxylate] | > 15 |
| COc1ncc(-c2cc(CN3CCC(F)(F)CC3)c3c(N)ncnn23)cc1C(=O)N[C@@H]1CN(C(=O)O[C@H](C)C2CC2)C[C@@H]1F [Example 1515, (1R)-1-cyclopropylethyl (3R,4S)-3-(5-{4-amino-5-[(4,4-difluoropiperidin-1-yl)methyl]pyrrolo[2,1-f][1,2,4]triazin-7-yl}-2-methoxypyridine-3-amido)-4-fluoropyrrolidine-1-carboxylate] | > 15 |
| COc1ncc(-c2cc(CN3CCC(F)(F)CC3)c3c(N)ncnn23)cc1C(=O)N[C@@H]1CN(C(=O)OCCCF)C[C@@H]1F [Example 1516, 3-fluoropropyl (3R,4S)-3-(5-{4-amino-5-[(4,4-difluoropiperidin-1-yl)methyl]pyrrolo[2,1-f][1,2,4]triazin-7-yl}-2-methoxypyridine-3-amido)-4-fluoropyrrolidine-1-carboxylate] | > 15 |
| COc1ncc(-c2cc(CN3CCC(F)(F)CC3)c3c(N)ncnn23)cc1C(=O)N[C@@H]1CN(C(=O)OCC2CC2)C[C@@H]1F [Example 1517, cyclopropylmethyl (3R,4S)-3-(5-{4-amino-5-[(4,4-difluoropiperidin-1-yl)methyl]pyrrolo[2,1-f][1,2,4]triazin-7-yl}-2-methoxypyridine-3-amido)-4-fluoropyrrolidine-1-carboxylate] | > 15 |
| COc1ncc(-c2cc(CN3CCC(F)(F)CC3)c3c(N)ncnn23)cc1C(=O)N[C@@H]1CN(C(=O)OCC(C)(F)F)C[C@@H]1F [Example 1518, 2,2-difluoropropyl (3R,4S)-3-(5-{4-amino-5-[(4,4-difluoropiperidin-1-yl)methyl]pyrrolo[2,1-f][1,2,4]triazin-7-yl}-2-methoxypyridine-3-amido)-4-fluoropyrrolidine-1-carboxylate] | > 15 |
| COc1ncc(-c2cc(CN3CCC(F)(F)CC3)c3c(N)ncnn23)cc1C(=O)N[C@@H]1CN(C(=O)OC2(C)CC2)C[C@@H]1F [Example 1519, 1-methylcyclopropyl (3R,4S)-3-(5-{4-amino-5-[(4,4-difluoropiperidin-1-yl)methyl]pyrrolo[2,1-f][1,2,4]triazin-7-yl}-2-methoxypyridine-3-amido)-4-fluoropyrrolidine-1-carboxylate] | > 15 |
| COc1ncc(-c2cc(CN3CCC(F)(F)CC3)c3c(N)ncnn23)cc1C(=O)N[C@@H]1CN(C(=O)OCC(F)(F)C(F)F)C[C@@H]1F [Example 1520, 2,2,3,3-tetrafluoropropyl (3R,4S)-3-(5-{4-amino-5-[(4,4-difluoropiperidin-1-yl)methyl]pyrrolo[2,1-f][1,2,4]triazin-7-yl}-2-methoxypyridine-3-amido)-4-fluoropyrrolidine-1-carboxylate] | > 15 |
| CCCOC(=O)N1C[C@H](F)[C@H](NC(=O)c2cc(-c3cc(CN4CCC(F)(F)CC4)c4c(N)ncnn34)cnc2OC)C1 [Example 1535, propyl (3R,4S)-3-(5-{4-amino-5-[(4,4-difluoropiperidin-1-yl)methyl]pyrrolo[2,1-f][1,2,4]triazin-7-yl}-2-methoxypyridine-3-amido)-4-fluoropyrrolidine-1-carboxylate] | > 15 |
| COc1ncc(-c2cc(CN3CCC(F)(F)CC3)c3c(N)ncnn23)cc1C(=O)N[C@@H]1CN(S(=O)(=O)CCC(F)(F)F)C[C@@H]1F [Example 1541, 5-{4-amino-5-[(4,4-difluoropiperidin-1-yl)methyl]pyrrolo[2,1-f][1,2,4]triazin-7-yl}-N-[(3R,4S)-4-fluoro-1-(3,3,3-trifluoropropanesulfonyl)pyrrolidin-3-yl]-2-methoxypyridine-3-carboxamide] | > 15 |
| COc1ncc(-c2cc(CN3CCC(F)(F)CC3)c3c(N)ncnn23)cc1C(=O)N[C@@H]1CN(S(=O)(=O)CC(F)(F)F)C[C@@H]1F [Example 1542, 5-{4-amino-5-[(4,4-difluoropiperidin-1-yl)methyl]pyrrolo[2,1-f][1,2,4]triazin-7-yl}-N-[(3R,4S)-4-fluoro-1-(2,2,2-trifluoroethanesulfonyl)pyrrolidin-3-yl]-2-methoxypyridine-3-carboxamide] | > 15 |
| [2H]C([2H])([2H])Oc1ncc(-c2cc(CC3CC(F)(F)C3)c3c(N)ncnn23)cc1C(=O)N[C@@H]1CN(C(=O)OCC(F)(F)F)C[C@@H]1F [Example 1548, 2,2,2-Trifluoroethyl (3R,4S)-3-(5-(4-amino-5-((3,3-difluorocyclobutyl)methyl)pyrrolo[2,1-f][1,2,4]triazin-7-yl)-2-(methoxy-d3)nicotinamido)-4-fluoropyrrolidine-1-carboxylate] | > 15 |
